Results from US6989435B2, “Compounds and methods to inhibit or augment an inflammatory response” (Cambridge University Technical Services Ltd., priority 1997, dated 2006).

Biological target: T1, Duffy Antigen Receptor for Chemokines (DARC) (Homo sapiens, UniProt Q16570)
T1 sequence (Q16570 1-336): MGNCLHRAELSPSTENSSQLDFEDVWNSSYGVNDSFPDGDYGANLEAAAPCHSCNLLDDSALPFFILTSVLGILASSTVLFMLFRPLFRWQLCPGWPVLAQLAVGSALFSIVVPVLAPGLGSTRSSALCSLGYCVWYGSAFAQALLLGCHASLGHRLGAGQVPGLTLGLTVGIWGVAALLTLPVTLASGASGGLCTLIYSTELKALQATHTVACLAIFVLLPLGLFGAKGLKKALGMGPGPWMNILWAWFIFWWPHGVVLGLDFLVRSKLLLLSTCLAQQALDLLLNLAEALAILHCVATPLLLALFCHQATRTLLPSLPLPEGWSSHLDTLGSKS
Experiment: DARC binding: competition with 125I-labeled MCP-1 on red blood cells
Conditions: Table 7; estimated ka for binding to red blood cells divided by average inhibitory ED50 versus each of the chemokines

DUFFY SELECTIVITY: 22.34
Structure (SMILES): NCCCC[C@H](NC(=O)[C@H](CCC(N)=O)NC(=O)[C@@H](N)CCCCN)C(=O)O [KQK]
